Experimental data taken from patent publication US20110064726A1.

Target: cynomolgus monkey IgE (cynomolgus monkey)
Assay: capture ELISA, antibody coated; Test 2, Cyno 8 serum

IgE concentration detected: 25 ng/mL
Substance: E25 (omalizumab) (antibody)
